Molecules are shown by their SMILES.

Chains of the proteins cited; added tags and fusions are not shown. Lines headed by an entry give the natural chain unless they say otherwise; changes in a name come on top.
UniProt Q13255: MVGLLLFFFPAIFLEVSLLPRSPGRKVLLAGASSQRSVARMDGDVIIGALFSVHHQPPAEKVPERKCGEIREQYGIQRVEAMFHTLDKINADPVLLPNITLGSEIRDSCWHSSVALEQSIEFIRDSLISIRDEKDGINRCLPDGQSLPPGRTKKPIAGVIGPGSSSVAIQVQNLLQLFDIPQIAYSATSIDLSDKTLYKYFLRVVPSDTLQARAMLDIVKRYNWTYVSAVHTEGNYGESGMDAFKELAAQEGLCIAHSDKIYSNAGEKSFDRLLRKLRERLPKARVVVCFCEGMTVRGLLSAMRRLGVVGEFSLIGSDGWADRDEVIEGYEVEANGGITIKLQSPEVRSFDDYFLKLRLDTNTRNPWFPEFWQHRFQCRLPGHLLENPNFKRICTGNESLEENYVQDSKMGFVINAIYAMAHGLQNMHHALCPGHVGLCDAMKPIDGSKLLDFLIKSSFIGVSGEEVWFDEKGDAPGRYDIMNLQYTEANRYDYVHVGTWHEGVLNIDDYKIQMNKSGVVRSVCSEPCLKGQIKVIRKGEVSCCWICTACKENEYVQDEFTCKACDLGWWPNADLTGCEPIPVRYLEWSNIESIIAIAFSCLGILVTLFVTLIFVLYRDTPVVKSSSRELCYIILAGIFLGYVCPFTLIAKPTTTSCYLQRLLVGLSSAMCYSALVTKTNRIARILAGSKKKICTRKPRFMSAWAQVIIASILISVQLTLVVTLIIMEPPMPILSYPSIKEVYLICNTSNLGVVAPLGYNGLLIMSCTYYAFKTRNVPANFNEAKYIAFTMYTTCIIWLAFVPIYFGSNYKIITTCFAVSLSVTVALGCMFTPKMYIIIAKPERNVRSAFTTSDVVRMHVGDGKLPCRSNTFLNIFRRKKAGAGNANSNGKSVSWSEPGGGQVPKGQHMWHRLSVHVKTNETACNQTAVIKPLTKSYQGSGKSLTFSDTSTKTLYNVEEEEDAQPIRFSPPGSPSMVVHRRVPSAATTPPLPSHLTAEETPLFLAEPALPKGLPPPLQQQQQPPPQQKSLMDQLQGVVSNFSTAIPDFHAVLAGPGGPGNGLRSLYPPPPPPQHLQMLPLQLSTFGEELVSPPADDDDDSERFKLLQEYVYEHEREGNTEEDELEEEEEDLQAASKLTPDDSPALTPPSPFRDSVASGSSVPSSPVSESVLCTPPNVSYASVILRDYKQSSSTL

By Ki is commonly meant a measure of affinity in units of concentration, obtained from inhibition or displacement. Read a high Ki as weaker binding.

For the test, the target named is Metabotropic glutamate receptor 1 (Homo sapiens, UniProt Q13255).

`N[C@@H](Cn1oc(=O)[nH]c1=O)C(=O)O` [2-amino-3-(3,5-dioxo[1,2,4]oxadiazolidin-2-yl)propionic acid] came in with a Ki of 10 nM.

The values above are taken from BindingDB's records for doi:10.1046/j.1471-4159.2000.0752590.x (F. Hoffmann-La Roche, 2000).
